{"source": "published antibiotic growth screens (doi:10.1038/s41589-023-01349-8)", "note": "The list shows a part of the results.", "data": [{"test_system": "A. baumannii ATCC 17978", "test": "relative growth (fraction of control); higher = less inhibition", "conditions": "50 µM", "values": [{"smiles": "CO[C@@H](CN(C)C(=O)c1ccccc1F)[C@@H](C)CN([C@@H](C)CO)S(=O)(=O)c1ccc(Cl)cc1", "relative growth": 0.853}, {"smiles": "Cc1cc(C(C)(C)CC(C)(C)C)ccc1OCCOCC[N+](C)(C)Cc1ccccc1.[Cl-]", "relative growth": 0.152}, {"smiles": "CN(C)CC(=O)N[C@@H]1CC[C@H](CCNC(=O)C2CC2)O[C@H]1CO", "relative growth": 1.12}, {"smiles": "O=C(C[n+]1ccc(/C=N/O)cc1)N1CCCCC1", "relative growth": 1.04}, {"smiles": "O=C(O)c1cc2ncc(CCO)cn2n1", "relative growth": 0.984}, {"smiles": "COc1ccccc1CNC(=O)C[C@H]1CC[C@H]2[C@@H](COC[C@H](O)CN2C(=O)Nc2ccc(Cl)cc2)O1", "relative growth": 1.01}, {"smiles": "CC(C)(C(=O)O)c1ccc(C(O)CCCN2CCC(C(O)(c3ccccc3)c3ccccc3)CC2)cc1.Cl", "note": "(stereo not given)", "relative growth": 1.06}, {"smiles": "Cc1cn[nH]c1", "relative growth": 0.962}, {"smiles": "CN(Cc1cc(Br)cc(Br)c1N)C1CCCCC1.Cl", "relative growth": 1.13}, {"smiles": "CCCNC(=O)N(C)C[C@H]1Oc2cc(C#Cc3cccc(F)c3)ccc2S(=O)(=O)N([C@@H](C)CO)C[C@@H]1C", "relative growth": 0.912}, {"smiles": "COC(=O)[C@@H]1C[C@H](C#N)N[C@@H]1c1ccco1", "relative growth": 0.999}, {"smiles": "COC(=O)Nc1nc2cc(C(=O)c3cccs3)ccc2[nH]1", "relative growth": 0.971}, {"smiles": "COCC#Cc1ccc2c(c1)O[C@H](CN(C)S(=O)(=O)c1ccc(F)cc1)[C@@H](C)CN([C@@H](C)CO)S2(=O)=O", "relative growth": 0.849}, {"smiles": "FC(F)(F)C(Cl)Br", "note": "(stereo not given)", "relative growth": 0.956}, {"smiles": "O=C(O)CN1C(=O)c2cccc3cccc(c23)C1=O", "relative growth": 1.04}, {"smiles": "COc1ccc(NC(=O)N[C@H]2CC[C@H](CCNC(=O)CN3CCOCC3)O[C@H]2CO)cc1", "relative growth": 1.03}, {"smiles": "CCC(C)(C)c1ccc(CC(C)CN2C[C@@H](C)O[C@@H](C)C2)cc1.Cl", "note": "(stereo not given in full)", "relative growth": 0.928}, {"smiles": "C[C@H](CO)N1C[C@H](C)[C@H](CN(C)C(=O)CN(C)C)Oc2cc(-c3cncnc3)ccc2S1(=O)=O", "relative growth": 0.982}, {"smiles": "CC(O)CN(CCN(CC(C)O)CC(C)O)CC(C)O", "note": "(stereo not given)", "relative growth": 0.861}, {"smiles": "CN1CCC(OC(c2ccccc2)c2ccccc2)CC1.Cl", "relative growth": 0.945}, {"smiles": "O=C(N/N=C/[C@H](O)[C@@H](O)[C@H](O)[C@H](O)CO)c1ccccn1", "relative growth": 1.06}, {"smiles": "O=C(O)CCCCCCCC(=O)O", "relative growth": 1.17}, {"smiles": "COC(=O)Cn1c(=O)c2c(OC)c(C)cnc2n(C)c1=O", "relative growth": 0.99}, {"smiles": "CCCCCCCCCCCCCCCC(=O)OC/C=C(C)/C=C/C=C(C)/C=C/C1=C(C)CCCC1(C)C", "relative growth": 0.989}, {"smiles": "C[C@H]1CC2C3CCC4=CC(=O)C=C[C@]4(C)[C@@]3(F)[C@@H](O)C[C@]2(C)[C@@]1(O)C(=O)COP(=O)([O-])[O-].[Na+].[Na+]", "note": "(stereo not given in full)", "relative growth": 0.936}, {"smiles": "CCOc1ccc2c(c1)-c1c(ssc1=S)C(C)(C)N2C", "relative growth": 1.1}, {"smiles": "NCCCCCCNC(=O)[C@@H]1C[C@@H]2C(=O)N[C@@H](CCCCN)C(=O)N2[C@@H]1c1cccc(OCCO)c1", "relative growth": 1.01}, {"smiles": "CN1CCN(C(=O)C[C@@H]2CC[C@@H]3[C@H](COC[C@@H](O)CN3C(=O)Nc3ccc4c(c3)OCO4)O2)CC1", "relative growth": 0.951}, {"smiles": "CCCC(=O)Nc1ccc2c(c1)C(=O)N(C)[C@@H]1CC[C@@H](CC(=O)NCCN3CCCCC3)O[C@H]1CO2", "relative growth": 1}, {"smiles": "Cc1c2occ(C(C)(C)C)c2cc2c3c(c(=O)oc12)CCCC3", "relative growth": 1.01}, {"smiles": "O=C(C[C@@H]1CC[C@@H]2[C@H](COC[C@H](O)CN2S(=O)(=O)c2ccc(F)cc2)O1)N[C@@H]1CCN(Cc2ccccc2)C1", "relative growth": 1.05}, {"smiles": "O=C(O)CNS(=O)(=O)c1ccccc1", "relative growth": 0.934}, {"smiles": "NS(=O)(=O)c1cc(C2(O)NC(=O)c3ccccc32)ccc1Cl", "note": "(stereo not given)", "relative growth": 1.22}, {"smiles": "OCc1cc(O)c2c(O)c3c(O)cccc3c(O[C@@H]3O[C@H](CO)[C@@H](O)[C@H](O)[C@H]3O)c2c1", "relative growth": 0.996}, {"smiles": "CC(C)NC(=O)N[C@@H]1C=C[C@@H](CC(=O)NCCCN(C)C)O[C@H]1CO", "relative growth": 1.04}, {"smiles": "N[C@@H]1CC[C@@H](CCn2cc(C3(O)CCCC3)nn2)O[C@H]1CO", "relative growth": 1.01}, {"smiles": "CCCc1cc(C(N)=S)ccn1", "relative growth": 0.952}, {"smiles": "Cn1cnc(CCNC(=O)C[C@@H]2CC[C@H]3[C@@H](COC[C@H](O)CN3C(=O)C3CC3)O2)c1", "relative growth": 1.03}, {"smiles": "CCNC(=O)C[C@H]1CC[C@@H](NC(=O)C2CCOCC2)[C@@H](CO)O1", "relative growth": 1.08}, {"smiles": "Nc1nnnn1/N=C\\C=C\\c1ccccc1", "relative growth": 1.01}, {"smiles": "COc1cccc(S(=O)(=O)N[C@H]2CC[C@@H](CC(=O)NC3CCC3)O[C@@H]2CO)c1", "relative growth": 0.879}, {"smiles": "CC1(C)C(=O)NCCN1C(=O)C1CC1", "relative growth": 0.975}, {"smiles": "CO[C@H]1CN(C)C(=O)c2cc(NS(C)(=O)=O)ccc2OC[C@H](C)N(C(=O)C2CCCCC2)C[C@@H]1C", "relative growth": 1.01}, {"smiles": "C[Si](C)(C)O[Si](C)(C)O[Si](C)(C)C", "relative growth": 0.853}, {"smiles": "CC1(C)[C@@H]2CC[C@]1(C)C(=O)C2", "relative growth": 0.952}, {"smiles": "CN(C)CC/C=C1\\c2ccccc2Sc2ccc(Cl)cc21.Cl", "relative growth": 0.851}, {"smiles": "O=C1CCC(=O)N1CNc1ccccn1", "relative growth": 0.981}, {"smiles": "C[C@@H]1CN([C@@H](C)CO)S(=O)(=O)c2ccc(C#CCN(C)C)cc2O[C@@H]1CN(C)C(=O)c1ccccc1F", "relative growth": 1.02}, {"smiles": "COCCOC(=O)N1C(=O)[C@@]2(c3cc(C#Cc4ccc(OC)cc4)ccc31)[C@H](c1ccc(O)cc1)N1[C@H](c3ccccc3)[C@H](c3ccccc3)OC(=O)[C@H]1[C@@H]2C(=O)N1CCc2cc(OC)c(OC)cc2C1", "relative growth": 0.907}, {"smiles": "COc1ccc([C@H]([C@H](Cc2ccccc2)OC(C)=O)N(C[C@H](/C=C/c2ccccc2)OC(C)=O)[C@@H](Cc2ccccc2)C(OC)OC)cc1", "relative growth": 1.13}, {"smiles": "O=C(C[C@H]1C=C[C@@H](NC(=O)Cc2ccccn2)[C@H](CO)O1)NCCc1ccncc1", "relative growth": 1.03}, {"smiles": "CC[N+](C)(CC)Cc1ccccc1", "relative growth": 1.1}, {"smiles": "C[C@@H]1CN([C@@H](C)CO)C(=O)c2cccc(NC(=O)Nc3cccc4ccccc34)c2O[C@H]1CN(C)S(=O)(=O)c1ccc2c(c1)OCCCO2", "relative growth": 1.06}, {"smiles": "O=C(CN1CCOCC1)N[C@H]1CC[C@@H](CCn2cc(C3CCCC3)nn2)O[C@H]1CO", "relative growth": 0.961}, {"smiles": "C[C@H](CO)N1C[C@H](C)[C@@H](CN(C)C(=O)c2cccc(F)c2)Oc2cc(-c3ccncc3)ccc2S1(=O)=O", "relative growth": 1.08}, {"smiles": "CO[C@@H]1CN(C)C(=O)c2ccc(NS(=O)(=O)c3cn(C)cn3)cc2OC[C@@H](C)N(CCC(F)(F)F)C[C@@H]1C", "relative growth": 1.15}, {"smiles": "CN(C)CCN(Cc1ccc(Cl)cc1)c1ccccn1.Cl", "relative growth": 1.16}, {"smiles": "O=C(C[C@@H]1CC[C@@H]2[C@H](COC[C@H](O)CN2C(=O)c2ccncc2)O1)NCc1ccc(-c2ccccc2)cc1", "relative growth": 1.04}, {"smiles": "CC(CCc1ccc(O)cc1)NCCc1ccc(O)c(O)c1.Cl", "note": "(stereo not given)", "relative growth": 0.964}, {"smiles": "Cc1ccccc1S(=O)(=O)N1C[C@H](O)COC[C@H]2O[C@H](CC(=O)N3CCC(Cc4ccccc4)CC3)CC[C@@H]21", "relative growth": 0.835}, {"smiles": "COc1cccc(S(=O)(=O)N(C)C[C@@H]2Oc3c(NC(=O)Nc4cccc5ccccc45)cccc3C(=O)N([C@@H](C)CO)C[C@H]2C)c1", "relative growth": 0.993}, {"smiles": "C[C@]12CCC(=O)C=C1[C@@H]1C[C@@H]1C1C2CC[C@@]2(C)C1[C@@H]1C[C@@H]1[C@@]21CCC(=O)O1", "note": "(stereo not given in full)", "relative growth": 1.03}, {"smiles": "C1CCN=C(NC2CCCCC2)CC1", "relative growth": 0.984}, {"smiles": "CC(C)c1ccc(/C=C2\\CSc3ccccc3C2=O)cc1", "relative growth": 1.01}, {"smiles": "Cc1[nH]c2ccccc2c1C(=O)CSc1ccc(Cl)cc1", "relative growth": 1.17}, {"smiles": "O=C(CN1C(=O)c2ccccc2C1=O)N1CCNCC1", "relative growth": 0.958}, {"smiles": "COCC#Cc1ccc2c(c1)O[C@@H](CN(C)C(=O)c1ccccc1F)[C@H](C)CN([C@H](C)CO)S2(=O)=O", "relative growth": 1.07}, {"smiles": "NCC[C@@H]1CC[C@@H](NC(=O)C2CCCC2)[C@H](CO)O1", "relative growth": 1.15}, {"smiles": "CC(C)N1CCN(c2ccc(OC[C@H]3CO[C@](Cn4cncn4)(c4ccc(Cl)cc4Cl)O3)cc2)CC1", "note": "(racemic)", "relative growth": 1.05}, {"smiles": "Cn1cnc(S(=O)(=O)N2C[C@@H](O)COC[C@@H]3O[C@H](CC(=O)NC4Cc5ccccc5C4)CC[C@H]32)c1", "relative growth": 1.1}, {"smiles": "C[C@H](O)[C@H](O)[C@@H](O)[C@@H](O)/C=N/NC(=O)CCCCC(=O)NO", "relative growth": 1.02}, {"smiles": "CN(C)[C@@H]1C(O)=C(C(N)=O)C(=O)[C@@]2(O)C(O)=C3C(=O)c4c(O)ccc(Cl)c4[C@@H](O)[C@H]3C[C@@H]12.Cl", "relative growth": 0.167}, {"smiles": "CON(C)c1nc(Oc2ccc(=O)[nH]n2)nc(N(C)C)n1", "relative growth": 1.09}, {"smiles": "CC(C)(CO)[C@@H](O)C(=O)NCCC(=O)[O-].[Na+]", "note": "[PANTOTHENIC ACID(d) Na salt]", "relative growth": 0.929}, {"smiles": "COc1ccc2c(=O)c(OC)c(-c3ccccc3)oc2c1", "relative growth": 0.939}, {"smiles": "COC(=O)C[C@H]1C(C)(C)[C@@H](OC(C)=O)[C@@H]2CC3C4CC(=O)O[C@@H](c5ccoc5)[C@]4(C)CCC3[C@@]1(C)C2=O", "note": "(stereo not given in full)", "relative growth": 1.03}, {"smiles": "COc1cc(OC)nc(N=CNO)n1", "relative growth": 1.16}, {"smiles": "COCCOC(=O)N1C(=O)[C@@]2(c3cc(C#CCCO)ccc31)[C@H](C(=O)NC[C@H](O)c1ccccc1)[C@H]1C(=O)O[C@H](c3ccccc3)[C@H](c3ccccc3)N1[C@@H]2c1ccc(O)cc1", "relative growth": 0.984}, {"smiles": "C=C1C(=O)O[C@@H]2/C=C(\\CO[C@@H]3O[C@H](CO)[C@@H](O)[C@H](O)[C@H]3OC(=O)Cc3ccc(O)cc3)CC/C=C(/C=O)C[C@H](O)[C@@H]12", "relative growth": 1.12}, {"smiles": "C[C@@H]1CN([C@H](C)CO)S(=O)(=O)c2ccc(C#Cc3cccnc3)cc2O[C@H]1CN(C)CC1CCOCC1", "relative growth": 0.9}, {"smiles": "CC(C)NC(=O)N[C@@H]1C=C[C@@H](CC(=O)NCCN2CCCC2)O[C@@H]1CO", "relative growth": 1.08}, {"smiles": "C[C@H](CO)N1C[C@H](C)[C@H](CN(C)C(=O)CN(C)C)Oc2cc(C#Cc3ccccc3)ccc2S1(=O)=O", "relative growth": 1.06}, {"smiles": "C=CCSc1nc(=O)cc(N)[nH]1", "relative growth": 1.15}, {"smiles": "COc1ccc(-c2cc(=O)c3ccccc3o2)cc1", "relative growth": 0.926}, {"smiles": "Cn1cnc(S(=O)(=O)N2C[C@@H](O)COC[C@@H]3O[C@@H](CC(=O)N4CCN(c5ccccc5)CC4)CC[C@H]32)c1", "relative growth": 1.02}]}]}
